# Laboratory results reported in PubChem BioAssay AID2732 (Emory University Molecular Libraries Screening Center, 2010).
# Several values for one entry are separate records, joined by “and”; a condition that tells them apart may be missing. Equal entries are not always repeated. This is a selection; strong and weak results do not stand in their true shares. Activity calls are given as the source filed them.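 Rule for the calls: active = compounds that reduced the stress-induced luciferase reporter signal by more than about 70% of percent inhibition (limit read from the data); inactive = the rest.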
# Assay: blockers of ER-stress CHOP reporter expression – cell-based, unfolded protein response, luciferase reporter, primary screen (AID 2732);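 note: 0% = tunicamycin plus vehicle and 100% = wells without tunicamycin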
# Conditions: CHO-K1 CHOP-promoter luciferase, tunicamycin-induced, 15-18 h; at 10 µM; active compounds read high
row,SMILES,inhibition
1,NC(=O)Nc1ccc([As](=O)(O)O)cc1,inactive: 0.66%
2,CN(C(=O)Cc1ccccc1)[C@@H]1CC[C@]2(CCCO2)C[C@H]1N1CCCC1,inactive: -7.6% and inactive: 19%
3,CCOP1(=S)c2c(C)nn(CCC#N)c2N=C(c2ccc(F)cc2)N1C (configuration not stated),inactive: -14.8%
4,O=[N+]([O-])c1ccc2c(c1)nnn2O,inactive: 30.3%
5,CCOP1(=S)c2c(C)nn(CCC#N)c2N=C(c2ccccc2F)N1C (configuration not stated),inactive: 14%
6,O=P(Nc1nccs1)(c1ccccc1)c1nc2ccccc2s1 (configuration not stated),inactive: -34.4%
7,O=P(Nc1nccs1)(Oc1ccccc1)Oc1ccccc1,inactive: -3.32%
8,CS(=O)(=O)c1cc([N+](=O)[O-])c2no[n+]([O-])c2c1,inactive: -20.9%
9,Nc1ccccc1[As](=O)(O)c1ccccc1,inactive: 2.92%
10,O=C(O)COc1ccc([As](=O)(O)O)cc1[N+](=O)[O-],inactive: 4.66%
11,Cc1ccc(NCCc2c([N+](=O)[O-])cc([N+](=O)[O-])cc2[N+](=O)[O-])cc1,inactive: 23.4%
12,Nc1cccc2c([As](=O)(O)O)cccc12,inactive: -16.3%
13,CCCOP(=S)(Nc1nc(N)cc(=O)[nH]1)OCCC,inactive: -10.6%
14,COc1cc(C2NCCC3(OCCO3)C2(C)C)cc(OC)c1OC (configuration not stated),inactive: -40.4%
15,CCOP(=O)(Nc1cccc2ccccc12)OCC,inactive: -16.1%
16,O=C(OC1CN2CCC1CC2)c1ccc(Cl)cc1 (configuration not stated),inactive: 7.98%
17,CN(C(=O)Cc1ccc(Cl)c(Cl)c1)[C@@H]1CC[C@]2(CCCO2)C[C@H]1N1CCCC1,inactive: -1.14%
18,COc1cc(C(=O)NCC2(N3CCOCC3)CCCCC2)cc(Cl)c1OC(C)C,inactive: 43.6%
19,O=[As](O)(O)c1cccnc1,inactive: -3.07%
20,O=[As](O)(c1cccc(O)c1)c1cccc(O)c1,inactive: 1.88%
21,Cc1cccc(OCC(=O)OC2CN3CCC2CC3)c1 (configuration not stated),inactive: 6.42%
22,CC(C)/C=N\N=C(\N)N[N+](=O)[O-],inactive: 20.5%
23,CN(C(=O)Cc1ccc(Cl)c(Cl)c1)[C@@H]1CCCC[C@H]1N1CCCC1,inactive: 2.99% and inactive: -3.3%
24,O=[As](O)(c1ccccc1Br)c1ccccc1Br,inactive: 4.96%
25,O=P1(Nc2ccccn2)COc2ccccc2OC1,inactive: 55.4%
26,CN(CCCl)Cc1cc(Cl)c(NC2=NCCN2)c(Cl)c1,inactive: -9.47%

row,SMILES,inhibition
1,CCOP(=O)(Nc1ccc(C)cn1)OCC,inactive: -2.37%
2,Clc1n[nH]nc1-c1nn[nH][15n]1,inactive: 10.6%
3,CC(C)(C)C(=O)NC(Sc1ncccn1)C(Cl)(Cl)Cl (configuration not stated),inactive: 9.96%
4,O=P1(Nc2ncccn2)COc2ccccc2OC1,inactive: 2.37%
5,Nc1cccc([As](=O)(O)c2ccccc2)c1,inactive: 0.63%
6,O=P1(Nc2ccc(Br)cn2)COc2ccccc2OC1,inactive: 26.1%
7,Cc1ccc(OCC(=O)OC2CN3CCC2CC3)cc1 (configuration not stated),inactive: 23.3%
8,O=[As](O)(c1cccs1)c1cccs1,inactive: -25.7%
9,Cc1nn(-c2ccccc2)c2c1P(=O)(N1CCOCC1)N(C)C(c1ccccc1)=N2 (configuration not stated),inactive: 28%
10,CC1CCC(C(C)C)C(OP(=O)(Nc2ccccn2)c2ccccc2)C1 (configuration not stated),active: 82.6%
11,CN(C)C1(CNC(=O)c2ccc(S(C)(=O)=O)cc2)CCCCC1,inactive: 21.1%
12,O=C(/C=C/c1ccccc1)OC1CN2CCC1CC2 (configuration not stated),inactive: 0.13%
13,CCOC(=O)Nc1cccc([As](=O)(O)O)c1,inactive: -3.98%
14,O=P(Nc1ccccn1)(c1cccc2ccccc12)c1cccc2ccccc12,inactive: 14.9%
15,Cc1cc(SC(NC=O)C(Cl)(Cl)Cl)ncn1 (configuration not stated),inactive: -4.45%
16,O=[N+]([O-])c1ccc(Nc2ccc(Oc3ccc([N+](=O)[O-])cc3[N+](=O)[O-])cc2)c([N+](=O)[O-])c1,inactive: 0.95%
17,CCOC(=O)Nc1ccc([As](=O)(O)O)c(O)c1,inactive: 11.2%
18,Cc1cc(SC(NC(=O)c2ccccc2)C(Cl)(Cl)Cl)nc(C(C)C)n1 (configuration not stated),inactive: 22%
19,CCOC(=O)c1ccc(NC(=O)C(C)(CCl)SC)cc1 (configuration not stated),inactive: -11.3%
20,CCC(C)N(CC(C)C)C(=S)SC(NC(C)=O)C(Cl)(Cl)Cl (configuration not stated),inactive: -24.1%
21,COP1(=S)c2c(C)nn(CCC#N)c2N=C(c2ccc(F)cc2)N1C (configuration not stated),inactive: 0.61%
22,O=C(COc1ccccc1)OC1CN2CCC1CC2 (configuration not stated),inactive: 10.6%
23,COc1ccc(N/C(=N/P(=O)(N2CCOCC2)N2CCOCC2)N2CCOCC2)cc1,inactive: 4.68%
24,Cc1c2c(nc3ccccc13)SC(C(Cl)Cl)C2 (configuration not stated),inactive: 51.1%
25,O=C(OC1CN2CCC1CC2)C12CC3CC(CC(C3)C1)C2 (configuration not stated),inactive: 3.65%
26,Cc1cc(=O)[nH]c(N[N+](=O)[O-])n1,inactive: -2.1%

row,SMILES,inhibition
1,COc1ccc2nc(NP(=O)(c3ccccc3)c3ccccc3)sc2c1,inactive: -30.1%
2,COc1cc(I)ccc1[As](=O)(O)O,inactive: 13.9%
3,ClCCSc1nnc(-c2cccnc2)o1,inactive: 1.14%
4,CC(C)c1ccc(OP(=O)(Nc2ccccn2)Oc2ccccc2F)cc1 (configuration not stated),inactive: 26%
5,CCN(CC)C(=S)SC(NC=O)C(Cl)(Cl)Cl (configuration not stated),inactive: 19.5%
6,CC(C)NC(=O)NP(=O)(Oc1ccccc1)Oc1ccccc1,inactive: 4.66%
7,O=[N+]([O-])c1cc([N+](=O)[O-])c(-c2ccn[nH]2)s1,inactive: 13.7%
8,C[As](=O)(O)c1cccc(C(=O)O)c1,inactive: 16%
9,O=[As](O)(c1ccc(O)cc1)c1ccccc1O,inactive: -11.1%
10,Cc1ccc(OP(=O)(Nc2ccc([N+](=O)[O-])cn2)Oc2ccc(C)cc2)cc1,inactive: -6.24%
11,Cc1ccc2nc3c(c(C)c2c1)CC(C(Cl)Cl)S3 (configuration not stated),inactive: 50.2%
12,Nc1cccc2ccc([As](=O)(O)O)cc12,inactive: 20.6%
13,CCN(N=Nc1nonc1N)c1nonc1N,inactive: 33.4%
14,O=P(Nc1nc2ccc(Cl)cc2s1)(c1ccccc1)c1ccccc1,inactive: -79.6%
15,O=C(O)c1ccccc1[As](=O)(O)O,inactive: 14.5%
16,CC(=O)Nc1ccc([As](=O)(O)O)cc1,inactive: -2.52%
17,CCOP(=O)(Nc1ccccc1)OCC,inactive: -9.19% and inactive: -18.6%
18,Cc1cc(SC(NC(=O)c2ccc(F)cc2)C(Cl)(Cl)Cl)ncn1 (configuration not stated),inactive: 8.82%
19,Cc1ccc(NP(=O)(Oc2ccccc2F)Oc2ccccc2F)nc1,inactive: 1.87%
20,CN(C(=O)Cc1ccc(Cl)c(Cl)c1)[C@H]1CCCC[C@@H]1N1CCCC1,inactive: -3.92% and inactive: -2.64%
21,Oc1ccccc1CNc1ccccn1,inactive: 31.7%
22,Cc1c2non([O-])c-2c(C)[n+](=O)[n+]1[O-],active: 87.9%
23,O=C(NC(Sc1ccncn1)C(Cl)(Cl)Cl)c1ccccc1 (configuration not stated),inactive: 11.3%
24,CC(C)CC(=O)NC(Sc1ccc(Cl)cc1)C(Cl)(Cl)Cl (configuration not stated),inactive: 50.9%
25,Nc1cc(N)c2nonc2c1[N+](=O)[O-],inactive: 5.25%
26,Cc1ccc(N/C(=N/P(=O)(N2CCOCC2)N2CCOCC2)N2CCOCC2)cc1,inactive: 16.9%

row,SMILES,inhibition
1,NC(=O)c1cc([N+](=O)[O-])cc([N+](=O)[O-])c1N,inactive: 4.72%
2,Clc1ccc(Cl)c(NC2=NCC(CBr)S2)c1 (configuration not stated),inactive: 5.28%
3,CN1CCCC(OC(=O)C(c2ccccc2)c2ccccc2)C1 (configuration not stated),inactive: -0.62%
4,COc1ccccc1OP(=O)(Nc1ccc(C)cn1)Oc1ccccc1OC,inactive: 9.71%
5,Cc1ccc(OP(=O)(Nc2nccs2)Oc2ccc(C)cc2)cc1,inactive: 8.66%
6,CCN(/C(=N/P(=O)(N1CCOCC1)N1CCOCC1)N1CCOCC1)c1ccc(OC)cc1,inactive: 3.46%
7,Nc1ccc([As](=O)(O)c2ccc(N)cc2)cc1,inactive: -6.1%
8,C[N+]1=C2C=CC=CC=C2SC12C([N+](=O)[O-])=CC([N+](=O)[O-])=C[C-]2[N+](=O)[O-] (configuration not stated),active: 101%
9,CC1CCN(C(=O)Oc2c(Cl)cc(Cl)c3cccnc23)CC1,inactive: 68%
10,CC(C)=N/N=C(\N)N[N+](=O)[O-],inactive: -18.3%
11,CN(C)C(=O)OCCc1n(C)cc[n+]1C,inactive: 4.97%
12,COc1ccc(C2=NCC(CBr)S2)cc1 (configuration not stated),inactive: 8.02%
13,Cc1ccc(NP(=O)(Oc2ccccc2)Oc2ccccc2)nc1,inactive: 23.9%
14,O=[N+]([O-])c1cc([N+](=O)[O-])c(CCNc2ccccc2)c([N+](=O)[O-])c1,inactive: -10.2%
15,O=[N+]([O-])c1cccc2n[nH]nc12,inactive: 13%
16,CC(=O)N1C2C3N(C(C)=O)C1C1N(C(C)=O)C(C(N1C(C)=O)N3C(C)=O)N2C(C)=O,inactive: 20.1%
17,O=[N+]([O-])c1ncn(CCn2ncnc2[N+](=O)[O-])n1,inactive: 9.19%
18,CC(C)(C)C(=O)NC(Sc1ccncn1)C(Cl)(Cl)Cl (configuration not stated),inactive: 4.21%
19,O=C(O)CNc1ccc([As](=O)(O)O)cc1,inactive: -9.43%
20,O=[N+]([O-])c1cccc(NC2=NCC(CBr)S2)c1 (configuration not stated),inactive: 10.4%
21,O=C(Nc1cc([As](=O)(O)O)ccc1O)c1ccccc1,inactive: 19.1%
22,O=[As](O)(c1ccccc1)c1ccc(O)cc1,inactive: -7.43%
23,CC(=O)NC(SC(=S)N(C)C)C(Cl)(Cl)Cl (configuration not stated),inactive: -68.1%
24,O=[N+]([O-])c1ncn(CCn2cnc([N+](=O)[O-])n2)n1,inactive: 4.55%
